The source of these data is PMC5791972 (2018).

Amino acid sequences for entries named in this document (tags omitted). A change or cut given only in a name is not applied to a line headed by its entry. Residues count along the entry.
UniProt P32241, 31-457: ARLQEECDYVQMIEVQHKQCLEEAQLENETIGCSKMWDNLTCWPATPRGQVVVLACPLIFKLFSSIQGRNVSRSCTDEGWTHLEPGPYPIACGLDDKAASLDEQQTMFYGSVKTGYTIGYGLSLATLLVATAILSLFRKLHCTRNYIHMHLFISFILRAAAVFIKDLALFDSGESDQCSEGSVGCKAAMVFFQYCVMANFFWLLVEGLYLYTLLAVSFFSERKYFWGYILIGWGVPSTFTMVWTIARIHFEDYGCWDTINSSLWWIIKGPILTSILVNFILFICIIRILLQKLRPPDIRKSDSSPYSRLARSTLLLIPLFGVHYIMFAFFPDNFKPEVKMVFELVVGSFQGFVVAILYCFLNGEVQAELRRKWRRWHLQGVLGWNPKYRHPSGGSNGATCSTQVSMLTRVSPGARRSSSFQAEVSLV
UniProt P37231: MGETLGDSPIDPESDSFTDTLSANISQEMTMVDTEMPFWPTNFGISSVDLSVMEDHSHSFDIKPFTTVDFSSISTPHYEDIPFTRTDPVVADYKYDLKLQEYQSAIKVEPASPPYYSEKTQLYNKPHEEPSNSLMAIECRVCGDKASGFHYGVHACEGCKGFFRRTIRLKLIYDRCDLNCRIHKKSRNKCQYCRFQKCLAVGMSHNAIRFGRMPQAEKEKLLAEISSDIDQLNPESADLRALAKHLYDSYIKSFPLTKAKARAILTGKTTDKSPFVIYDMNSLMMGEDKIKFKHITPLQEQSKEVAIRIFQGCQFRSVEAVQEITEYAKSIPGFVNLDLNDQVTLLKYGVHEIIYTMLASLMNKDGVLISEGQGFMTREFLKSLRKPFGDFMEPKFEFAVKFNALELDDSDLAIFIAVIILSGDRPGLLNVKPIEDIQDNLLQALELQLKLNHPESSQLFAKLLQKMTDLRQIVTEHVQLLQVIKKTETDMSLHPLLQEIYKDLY

What all share (assay type): binding
Assay [1] addresses VPAC1 (VIP1) (h) (Homo sapiens, UniProt P32241).
For assay [2], the target named is GABA transporter (Rattus norvegicus, UniProt P23978).
For assay [3], the target named is PPARγ (h) (Homo sapiens, UniProt P37231).

With `CC[C@H](C)[C@H](NC(=O)[C@H](CO)NC(=O)[C@H](CC(N)=O)NC(=O)[C@H](CC(C)C)NC(=O)[C@H](Cc1ccc(O)cc1)NC(=O)[C@H](CCCCN)NC(=O)[C@H](CCCCN)NC(=O)[C@@H](NC(=O)[C@H](C)NC(=O)[C@H](CCSC)NC(=O)[C@H](CCC(N)=O)NC(=O)[C@H](CCCCN)NC(=O)[C@H](CCCNC(=N)N)NC(=O)[C@H](CC(C)C)NC(=O)[C@H](CCCNC(=N)N)NC(=O)[C@@H](NC(=O)[C@H](Cc1ccc(O)cc1)NC(=O)[C@H](CC(N)=O)NC(=O)[C@H](CC(=O)O)NC(=O)[C@@H](NC(=O)[C@H](Cc1ccccc1)NC(=O)[C@@H](NC(=O)[C@H](C)NC(=O)[C@H](CC(=O)O)NC(=O)[C@H](CO)NC(=O)[C@@H](N)Cc1c[nH]cn1)C(C)C)[C@@H](C)O)[C@@H](C)O)C(C)C)C(=O)N[C@@H](CC(C)C)C(=O)N[C@@H](CC(N)=O)C(N)=O` [reference compound], the nH in assay [1] amounted to 0.9.

`O=C(O)C1CCCNC1` (stereo not drawn) [reference compound]: the nH in assay [2] is 0.8.

`CN(CCOc1ccc(CC2SC(=O)NC2=O)cc1)c1ccccn1` (stereo not drawn) [reference compound] displayed a nH in assay [3] of 0.9.
